Earlier results as cited in patent US20260285868A1, “IMIDAZOTRIAZINE DERIVATIVES AS IL-17 MODULATORS” (UCB BIOPHARMA SRL, priority 2023, published 2026).

Protein sequences, listed by entry. Tags and fused reporters are not part of them. Residues count along the entry.
UniProt Q16552, 24-155 limits assumed: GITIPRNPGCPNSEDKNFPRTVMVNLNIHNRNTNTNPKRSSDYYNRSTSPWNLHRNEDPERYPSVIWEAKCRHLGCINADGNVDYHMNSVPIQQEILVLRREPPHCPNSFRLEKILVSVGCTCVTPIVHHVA

Biological target: IL-17A (Homo sapiens, UniProt Q16552)
Details: comparative data; values as stated in WO 2023/275301; cited from earlier work

## Cn1nccc1C(=O)N[C@H](c1cn2ncc([C@H]3C[C@](O)(C(F)F)CCN3C(=O)[C@@H]3CCC(F)(F)CO3)nc2n1)C1CCC(F)(F)CC1 (single isomer, unassigned)
  pIC50: 6.2
